# Assay results taken from patent US9242996B2 (Novartis AG, priority 2013, dated 2016).
# By UniProt entry, the sequences of proteins in these tests, tags left out.
# UniProt P28482, whole entry: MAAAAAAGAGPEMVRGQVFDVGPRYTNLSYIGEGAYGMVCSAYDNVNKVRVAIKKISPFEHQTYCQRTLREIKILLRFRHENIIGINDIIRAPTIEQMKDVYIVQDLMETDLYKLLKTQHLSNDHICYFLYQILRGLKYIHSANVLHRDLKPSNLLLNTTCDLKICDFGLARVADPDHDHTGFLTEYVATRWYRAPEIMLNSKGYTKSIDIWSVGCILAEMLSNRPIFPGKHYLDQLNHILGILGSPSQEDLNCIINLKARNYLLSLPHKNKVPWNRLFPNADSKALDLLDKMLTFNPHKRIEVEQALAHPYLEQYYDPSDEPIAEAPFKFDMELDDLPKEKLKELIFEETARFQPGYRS
# pIC50: −log10 of the molar value.
# Target: activated ERK2 (Homo sapiens (Human), UniProt P28482)
# Assay: Activated ERK2 (20 pM) Kinase Assay (AlphaScreen, ERKtide phosphorylation)
# Assay type: biochemical
# Details: 0.02 nM ERK2, 400 nM ERKtide peptide, 35 μM ATP, 30 min preincubation
# Experimental: Activated ERK2 (20 pM) Kinase Assay:
# Compound potency against activated ERK2 was determined using a kinase assay that measures ERK2-catalyzed phosphorylation of biotinylated ERKtide peptide substrate ([Biotin]-AH[…]-[NH2], the peptide sequence derived from EGF receptor: SEQ ID NO:1). The assay was carried out in 20 mM HEPES [pH 7.5], 5 mM MgCl2, 1 mM DTT, 0.01% Tween-20, 0.05% BSA using 0.02 nM ERK2, 400 nM ERKtide peptide and 35 μM ATP (all concentrations are final in the reaction) in a total volume of 10.25 μL. […] Compound dilution series were prepared in 100% DMSO. ERK2 was preincubated with compounds for 30 minutes at ambient temperature. Reaction was initiated by addition of a substrate cocktail of ERKtide peptide and ATP and was allowed to proceed for 4 hours at ambient temperature. Reaction was terminated by addition of 10 μL of a 2× stop buffer consisting of 100 mM Tris-Cl [pH 7.5], 25 mM EDTA, 0.01% Tween 20, 20 μg/mL of AlphaScreen Protein A Acceptor Beads, 20 μg/mL of Streptavidin Donor Beads (PerkinElmer, Waltham, Mass.), and 1:1000 dilution phospho-EGF Receptor (Thr669) antibody (Cat #8808, Cell Signaling Technology, Danvers, Mass.). Terminated reactions were read, after overnight incubation in the dark, on an EnVision Multilabel Plate Reader (PerkinElmer, Waltham, Mass.), with excitation and emission wavelengths set to 680 nm and 570 nm, respectively. IC50 values were determined using a four-parameter fit.
row,Structure (SMILES),pIC50
1,"[N-]=[N+]=NC[C@@H](NC(=O)c1ccc(-c2nc([C@H]3CC[C@@H](O)CC3)cnc2N)cc1F)c1cccc(Cl)c1 [Example 403, 4-(3-amino-6-((1s,4R)-4-hydroxy-cyclohexyl)pyrazin-2-yl)-N-((S)-2-azido-1-(3-chlorophenyl)ethyl)-2-fluorobenzamide]",8.24
2,"Nc1ncc(C2CCC(CO)CC2)nc1-c1ccc(C(=O)N[C@H](CO)c2cccc(Cl)c2)c(F)c1 (single isomer, unassigned) [Example 445]",9.27
3,"Nc1ncc([C@H]2CCC(=O)NC2)nc1-c1ccc(C(=O)N[C@H](CO)c2cc(F)cc(I)c2)c(F)c1 [Example 478b, 4-(3-amino-6-((S)-6-oxopiperidin-3-yl)pyrazin-2-yl)-2-fluoro-N—((S)-1-(3-fluoro-5-iodophenyl)-2-hydroxyethyl)benzamide]",10.41
4,"COC(=O)N[C@H]1CC[C@@H](c2cnc(N)c(-c3ccc(C(=O)N[C@H](CO)c4cccc(Cl)c4)c(F)c3)n2)CC1 [Example 434, methyl ((1R,4s)-4-(5-amino-6-(4-(((S)-1-(3-chlorophenyl)-2-hydroxyethyl)carbamoyl)-3-fluorophenyl)pyrazin-2-yl)cyclohexyl) carbamate]",8.80
5,"CC(=O)N[C@H]1CC[C@@H](c2cnc(N)c(-c3ccc(C(=O)N[C@H](CO)c4cccc(Cl)c4)c(F)c3)n2)CC1 [Example 432, 4-(6-((1s,4R)-4-acetamido-cyclohexyl)-3-aminopyrazin-2-yl)-N-((S)-1-(3-chlorophenyl)-2-hydroxyethyl)-2-fluorobenzamide]",8.95
6,"Cc1c(-c2cnc(N)c(-c3ccc(C(=O)N[C@H](CN)c4cccc(Cl)c4)c(F)c3)c2)cnn1C [Example 248, (S)-N-(2-amino-1-(3-chlorophenyl)ethyl)-4-(2-amino-5-(1,5-dimethyl-1H-pyrazol-4-yl)pyridin-3-yl)-2-fluorobenzamide]",10.44
7,"CNC[C@@H](NC(=O)c1ccc(-c2nc(C3CCCC(O)C3)cnc2N)cc1F)c1cccc(Cl)c1 (single isomer, unassigned) [Example 364]",9.69
8,"Cc1nn(C)c(C)c1-c1cnc(N)c(-c2ccc(C(=O)N[C@H](CN)c3cccc(Cl)c3)c(F)c2)c1 [Example 250, (S)-N-(2-amino-1-(3-chlorophenyl)ethyl)-4-(2-amino-5-(1,3,5-trimethyl-1H-pyrazol-4-yl)pyridin-3-yl)-2-fluorobenzamide]",10.44
9,"CNC[C@@H](NC(=O)c1ccc(-c2nc(C3CCCC(O)C3)cnc2N)cc1F)c1cccc(Cl)c1 (single isomer, unassigned) [Example 369]",9.67
10,"CS(=O)(=O)N[C@H]1CC[C@@H](c2cnc(N)c(-c3ccc(C(=O)N[C@H](CO)c4cccc(Cl)c4)c(F)c3)n2)CC1 [Example 433, 4-(3-amino-6-((1s,4R)-4-(methyl-sulfonamido)cyclohexyl)pyrazin-2-yl)-N-((S)-1-(3-chlorophenyl)-2-hydroxyethyl)-2-fluorobenzamide]",8.54
11,"Cn1nncc1-c1cnc(N)c(-c2ccc(C(=O)N[C@H](CO)c3cc(F)cc(C(F)F)c3)c(F)c2)c1 [Example 272, (S)-4-(2-amino-5-(1-methyl-1H-1,2,3-triazol-5-yl)pyridin-3-yl)-N-(1-(3-(difluoromethyl)-5-fluorophenyl)-2-hydroxyethyl)-2-fluorobenzamide]",10.21
12,"CNC[C@@H](NC(=O)c1ccc(-c2nc(C3CCCC(O)C3)cnc2N)cc1F)c1cccc(Cl)c1 (single isomer, unassigned) [Example 366]",9.90
13,"[N-]=[N+]=NC[C@@H](NC(=O)c1ccc(-c2nc([C@H]3CC[C@H](O)CC3)cnc2N)cc1F)c1cccc(Cl)c1 [Example 402, 4-(3-amino-6-((1r,4S)-4-hydroxy-cyclohexyl)pyrazin-2-yl)-N-((S)-2-azido-1-(3-chlorophenyl)ethyl)-2-fluorobenzamide]",9.36
14,"Nc1ncc(C2CCC(CO)CC2)nc1-c1ccc(C(=O)N[C@H](CO)c2cccc(Cl)c2)c(F)c1 (single isomer, unassigned) [Example 444]",9.67
15,"NC[C@@H](NC(=O)c1ccc(-c2nc([C@H]3CC[C@H](O)CC3)cnc2N)cc1F)c1cccc(Cl)c1 [Example 392, N-((S)-2-amino-1-(3-chlorophenyl)ethyl)-4-(3-amino-6-((1r,4S)-4-hydroxy-cyclohexyl)pyrazin-2-yl)-2-fluorobenzamide]",10.34
16,"Nc1ncc(C2CCOCC2)nc1-c1ccc(C(=O)N[C@H](CO)c2ccc(F)c(Cl)c2)c(F)c1 [Example 55, (S)-4-(3-amino-6-(tetrahydro-2H-pyran-4-yl)pyrazin-2-yl)-N-(1-(3-chloro-4-fluorophenyl)-2-hydroxyethyl)-2-fluorobenzamide]",9.86

# Second part, the compound after the results:
row,pIC50,Structure (SMILES)
1,10.71,"NC[C@@H](NC(=O)c1ccc(-c2nc([C@H]3CC[C@H](O)[C@H](F)C3)cnc2N)cc1F)c1cc(F)cc(Br)c1 [Example 354, N-((S)-2-amino-1-(3-bromo-5-fluorophenyl)ethyl)-4-(3-amino-6-((1S,3R,4S)-3-fluoro-4-hydroxy-cyclohexyl)pyrazin-2-yl)-2-fluorobenzamide]"
2,10.54,"CNC[C@@H](NC(=O)c1ccc(-c2nc([C@H]3CCC[C@@H](O)C3)cnc2N)cc1F)c1cc(F)cc(Br)c1 (single isomer, unassigned) [Example 362]"
3,9.27,"Nc1ncc([C@H]2CC[C@@H](O)CC2)nc1-c1ccc(C(=O)N[C@H](CO)c2cc(F)cc(Br)c2)c(F)c1 [Example 437, 4-(3-amino-6-((1s,4R)-4-hydroxy-cyclohexyl)pyrazin-2-yl)-N-((S)-1-(3-bromo-5-fluorophenyl)-2-hydroxyethyl)-2-fluorobenzamide]"
4,10.16,"Nc1ncc([C@@H]2CC[C@@H](O)C2)nc1-c1ccc(C(=O)N[C@H](CO)c2cc(F)cc(I)c2)c(F)c1 [Example 453, 4-(3-amino-6-((1R,3R)-3-hydroxycyclopentyl)pyrazin-2-yl)-2-fluoro-N—((S)-1-(3-fluoro-5-iodophenyl)-2-hydroxyethyl)benzamide]"
5,10.99,"NC[C@@H](NC(=O)c1ccc(-c2nc([C@@H]3CC[C@@H](O)[C@@H](F)C3)cnc2N)cc1F)c1cc(F)cc(Br)c1 [Example 353, N-((S)-2-amino-1-(3-bromo-5-fluorophenyl)ethyl)-4-(3-amino-6-((1R,3S,4R)-3-fluoro-4-hydroxy-cyclohexyl)pyrazin-2-yl)-2-fluorobenzamide]"
6,10.25,"CNC[C@@H](NC(=O)c1ccc(-c2nc([C@@H]3CCC[C@H](O)C3)cnc2N)cc1F)c1cc(F)cc(Br)c1 (single isomer, unassigned) [Example 363]"
7,10.33,"Nc1ncc(C2CCC(CO)CC2)nc1-c1ccc(C(=O)N[C@H](CO)c2cc(F)cc(Br)c2)c(F)c1 (single isomer, unassigned) [Example 446]"
8,10.55,"Nc1ncc([C@H]2CC[C@H](O)CC2)nc1-c1ccc(C(=O)N[C@H](CO)c2cc(F)cc(Br)c2)c(F)c1 [Example 175, 4-(3-amino-6-((1r,4S)-4-hydroxycyclohexyl)pyrazin-2-yl)-N—((S)-1-(3-bromo-5-fluorophenyl)-2-hydroxyethyl)-2-fluorobenzamide]"
9,9.98,"Nc1ncc([C@H]2CC[C@H](O)CC2)nc1-c1ccc(C(=O)N[C@H](CO)c2cccc(C(F)F)c2)c(F)c1 [Example 339, 4-(3-amino-6-((1r,4S)-4-hydroxy-cyclohexyl)pyrazin-2-yl)-N-((S)-1-(3-(difluoromethyl)phenyl)-2-hydroxyethyl)-2-fluorobenzamide]"
10,9.79,"Nc1ncc(C2CCC(CO)CC2)nc1-c1ccc(C(=O)N[C@H](CO)c2cc(F)cc(Br)c2)c(F)c1 (single isomer, unassigned) [Example 447]"
11,10.44,"Nc1ncc(C2CCC(=O)CC2)nc1-c1ccc(C(=O)N[C@H](CO)c2cc(F)cc(Br)c2)c(F)c1 [Example 397, (S)-4-(3-amino-6-(4-oxocyclohexyl)pyrazin-2-yl)-N-(1-(3-bromo-5-fluorophenyl)-2-hydroxyethyl)-2-fluorobenzamide]"
12,10.06,"Nc1ncc([C@H]2CC[C@H](O)C(F)(F)C2)nc1-c1ccc(C(=O)N[C@H](CO)c2cc(F)cc(I)c2)c(F)c1 [Example 456, 4-(3-amino-6-((1S,4S)-3,3-difluoro-4-hydroxycyclohexyl)pyrazin-2-yl)-2-fluoro-N—((S)-1-(3-fluoro-5-iodophenyl)-2-hydroxyethyl)benzamide]"
